Measurements published in US10172831B2, “Catalytic scavengers of organophosphates to potentiate butyrylcholinesterase (hBChE) as a catalytic bioscavenger and methods for making and using them” (dated 2019).

By UniProt entry, the sequences of proteins in these tests, tags left out. Residues count along the entry.
UniProt P22303, 32-578 limits assumed: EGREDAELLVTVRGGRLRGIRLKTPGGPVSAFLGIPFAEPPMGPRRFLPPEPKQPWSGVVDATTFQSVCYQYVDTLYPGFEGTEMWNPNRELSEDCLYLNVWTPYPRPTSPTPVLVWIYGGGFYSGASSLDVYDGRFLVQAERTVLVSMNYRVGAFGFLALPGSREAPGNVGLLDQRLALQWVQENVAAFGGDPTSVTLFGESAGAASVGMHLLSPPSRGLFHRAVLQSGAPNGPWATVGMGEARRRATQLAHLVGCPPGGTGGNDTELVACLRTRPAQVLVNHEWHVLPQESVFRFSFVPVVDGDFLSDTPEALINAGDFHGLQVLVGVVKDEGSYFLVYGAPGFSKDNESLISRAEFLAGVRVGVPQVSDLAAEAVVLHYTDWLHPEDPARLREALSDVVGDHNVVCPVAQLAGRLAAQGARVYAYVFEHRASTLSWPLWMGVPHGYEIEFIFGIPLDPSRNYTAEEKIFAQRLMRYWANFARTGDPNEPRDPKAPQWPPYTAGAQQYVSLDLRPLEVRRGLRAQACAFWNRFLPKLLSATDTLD

Target: OP-hAChE conjugates (Homo sapiens, UniProt P22303)
Assay: Reactivation of OP-hAChE conjugates by 0.67 mM oxime (kobs)
Conditions: cyclosarin-hAChE conjugate

With `C[n+]1ccn(CCCc2ccccc2)c1C=NO.[I-]` the “cyclosarin hAChE reactivation rate compared to 2PAM” value was “comparable to 2PAM”.
